Holding throughout (experiment): optical trap (harmonic force spectroscopy); single sS1-eGFP molecules held on platform beads by anti-GFP antibody; actin dumbbell between two trapped streptavidin beads; stage oscillation 200 Hz; 2 mM ATP; 25 mM imidazole pH 7.5, 25 mM KCl, 4 mM MgCl2, 1 mM EGTA, 10 mM DTT, 1 mg/mL BSA; 23°C; k0 from the fit of load-dependent detachment …
In assay [1] the target is human β-cardiac myosin short subfragment 1 (sS1-eGFP) with ELC, S782N (human) (UniProt P12883).
Assay [2] deals with human β-cardiac myosin short subfragment 1 (sS1-eGFP) with ELC, L781P (human) (UniProt P12883).
The target in assay [3] is human β-cardiac myosin short subfragment 1 (sS1-eGFP) with ELC, wild type (human) (UniProt P12883).
For assay [4], the target named is human β-cardiac myosin short subfragment 1 (sS1-eGFP) with ELC, D778V (human) (UniProt P12883).

Turning to “TMR-phalloidin-labeled biotinylated actin filaments (from UniProt P68135 1-377) (natural protein)”, the k0 (detachment rate from actin at zero load force) in assay [1] came out at 145 s^–1; in assay [2], 102 s^–1; in assay [3], 147 s^–1; in assay [4], 316 s^–1.

These data come from publication PMC9242648.
